# Measured affinities in a library of Ab-14 heavy chain variants

Reference: Li et al. 2023, doi:10.1038/s41467-023-39022-2. File: FLAb, binding data.

All variants were tested on one target, the spike HR2 peptide PDVDLGDISGINAS (SARS-CoV-2).

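These sequences belong to a second round, designed from the earlier measurements on random variants of the parent. Several design methods are mixed in this list. AlphaSeq pools MATa yeast showing the antibodies with MATalpha yeast showing the peptide. The frequency of each diploid, read from paired DNA barcodes, reflects how well the two displayed proteins bind. Scores were corrected for input abundance and mapped to Kd with protein pairs of known affinity run in the same pool. The assay was run in six technical replicates.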

Ab-14 is the parent antibody, in scFv form: VH, then a (GGGGS)3 linker, then VL. The light chain is unchanged in all variants.
VH: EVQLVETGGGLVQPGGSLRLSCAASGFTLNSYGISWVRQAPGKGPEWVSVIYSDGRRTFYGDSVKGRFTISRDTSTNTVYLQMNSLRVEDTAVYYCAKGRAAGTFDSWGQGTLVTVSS
VL: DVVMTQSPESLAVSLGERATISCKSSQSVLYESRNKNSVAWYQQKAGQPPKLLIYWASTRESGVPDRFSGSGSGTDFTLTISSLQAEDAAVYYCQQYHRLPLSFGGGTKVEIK

Variants are written as CDR1, CDR2 and CDR3 of the heavy chain (limits as in the source). Parent: GFTLNSYGIS, VIYSDGRRTFYGDSVK, GRAAGTFDS.
Variants here have more than six changes.
The Kd shown is the geometric mean over detected replicates; a lower Kd is a better binder.
"nd" means that the variant was in the library but no mating with the target was seen in any replicate; the authors take this as a sign of poor binding, and no number exists.
In the paper, a design with two or fewer of six values counts as a poor binder.

With GFDLDEYGIS / VIYADGMRTAYSDSVK / GETAGTFDI the result was 330 pM (6 of 6 replicates). Variant GFDLNEYGIS / VIYADGRRTAYIDSVK / GEAAGTFDI showed 520 pM (6 of 6 replicates). With GFDLNEYGIS / VIYADGRRTAYADSVK / GNTAGTFDI the result was 310 pM (6 of 6 replicates). Variant GFNLDEYGIS / VIYADGYRRMYADDVK / GMNSGFGGT showed nd (0 of 6 replicates). For GDDLEDYGIS / VIYADGRRTAYQESVK / GLIAGAIDV, the assay gave nd (0 of 6 replicates). For GFNLDEYGIS / VIYADGRRTAYSDSVK / GNVAGTFDI, the assay gave 240 pM (6 of 6 replicates). For GFDLNEYGIS / VIYADGMRTFYADSVK / GEIAGTFKF, the assay gave 600 pM (6 of 6 replicates).

Variant GFDLNEYGIS / VIYADGRRTFYTDNVK / GQNAGTFDE showed 270 pM (6 of 6 replicates). Variant GFDVMEYGIS / VIYADGMRQAYTNKVK / GGNTSSGLI gave nd (0 of 6 replicates). Variant GFDLDEYGIS / VIYADGMRTAYADKVK / GNNAGTFDL showed 340 pM (6 of 6 replicates). For GFDLNEYGIS / VIYADGMRTFYADNAK / GNAGIVAEV, the assay gave nd (0 of 6 replicates). For GFDLNEYGIS / VIYADGRRTFYDDSVK / GQNAGTFDL, the assay gave 460 pM (6 of 6 replicates). Variant GFDLNEYGIS / VIYADGRRTFYADSVK / GNVAGTFLS showed 170 pM (6 of 6 replicates). For GFDLDEYGIS / VIYADGQRTFYQDSVK / GQAAGTFDQ, the assay gave 400 pM (6 of 6 replicates).

Variant GFDLQEYGIS / VIYADGKRTKVTDNVK / GTLTGTAVT gave nd (0 of 6 replicates). Variant GFDLNEYGIS / VIYADGVRKVYADSVK / GNVAGTFDV gave 96 pM (6 of 6 replicates). For GFILNDYGIS / VIYYDGRRTNYGDIVK / PRAALTFIS, the assay gave nd (0 of 6 replicates). With GFDLDEYGIS / VIYADGKRTAYADDVK / GNQAGTFDL the result was 570 pM (6 of 6 replicates). Variant GFDLNEYGIS / VIYADGMRTYYADDVK / GNTAGTFDV showed 670 pM (6 of 6 replicates). Variant GFDLDEYGIS / VIYADGMRTAYVDSVK / GNVAGTFDQ gave 380 pM (6 of 6 replicates). For GFNLNEYGIS / VIYADGLRSQYIDSVK / GNAFIFGLD, the assay gave nd (0 of 6 replicates).

Variant GFDLSEYGIS / VIYADGRRTFYTDSVK / GEFAGTFDV showed 2.6 nM (6 of 6 replicates). Variant GFDLNEYGIS / VIYADGMRTAYADKVK / GNQAGTFDI showed 330 pM (6 of 6 replicates). Variant GFDLNEYGIS / VIYADGRRTAYSDSVK / GHAAGTFDL showed 930 pM (6 of 6 replicates). With GFNLDEFGIS / VIYADGSRQFYVESFK / GQFGGNIVN the result was nd (0 of 6 replicates). Variant GFDLNEYGIS / VIYADGRRTFYTDSVK / GTGAGTFDV gave nd (0 of 6 replicates). Variant GFDLNEYGIS / VIYADGVRTFYADSVK / GTAAGTFDQ gave 1.8 nM (6 of 6 replicates). Variant GFDLNEYGIS / VIYADGVRTAYTDSVK / GENAGTFDT showed 240 pM (6 of 6 replicates).

With GFDLNEYGIS / VIYADGQRTAYADSVK / GEVAGTFDA the result was 660 pM (6 of 6 replicates). For GFDVNEYGIS / VIYADGVRRTYQDAVK / GDQSGVVDV, the assay gave nd (0 of 6 replicates). With GEELEEYGIS / VIYADGRKQSYSDSVK / GAIAGNFDM the result was nd (0 of 6 replicates). With GFDLEEMGVS / VIYHDGIRKAYKQKVK / GQFAGTFDV the result was nd (0 of 6 replicates). With GFDLDEYGIS / VIYADGRRTAYADDVK / GENAGTFDV the result was 1.6 nM (6 of 6 replicates). With GFDLNEYGIS / VIYADGQRTAYVDSVK / GENAGTFDI the result was 580 pM (6 of 6 replicates). For GFDLDEYGIS / VIYADGRRTFYADSVK / GTIAGTFDA, the assay gave 530 pM (6 of 6 replicates).

Variant GFDLNEYGIS / VIYADGMRTAYTDSVK / GANAGTFDV gave 240 pM (6 of 6 replicates). Variant GFDLDEYGIS / VIYADGMRTAYTDSVK / GEVAGTFDT gave 960 pM (6 of 6 replicates). With GFDLDEYGIS / VIYADGRRTFYADSVK / GSNAGTFDV the result was 44 pM (6 of 6 replicates). Variant GFWLDEYGIS / VIYADGMRTAYKNSVK / GSFTYVFDV showed nd (0 of 6 replicates).

Picked from the list: the 4 lowest averages where every replicate gave a value.

| CDR-H1 | CDR-H2 | CDR-H3 | Kd (apparent) | seen in |
|---|---|---|---|---|
| GFDLDEYGIS | VIYADGRRTFYADSVK | GSNAGTFDV | 44 pM | 6/6 |
| GFDLNEYGIS | VIYADGVRKVYADSVK | GNVAGTFDV | 96 pM | 6/6 |
| GFDLNEYGIS | VIYADGRRTFYADSVK | GNVAGTFLS | 170 pM | 6/6 |
| GFDLNEYGIS | VIYADGMRTAYTDSVK | GANAGTFDV | 240 pM | 6/6 |

Values of this round are not directly comparable with the first-round values of the same sequences.
Of ten entries with the parent sequence, four were seen in most replicates (averages 2.2 nM to 240 nM), three in one and three in none, so single entries are noisy.
Nonspecific signal, from three strains lacking the peptide, appeared in 1% of pairings of all heavy chain designs, centred on 120 nM (5% of these signals below 7.0 nM); values are not corrected for it.